The values below come from patent publication US11339419B2, “Scavenger protein(s) for improved preservation of analyte detection sensor(s) and method(s) of use thereof” (Siemens Healthcare Diagnostics Inc., priority 2017, dated 2022).

The subject of series [1] is creatininase (BBI Solutions). Nature of the series: BBI Solutions Creatininase Enzyme Absorbance with BSA and Proclin 300. Particulars: day 14; with Proclin 300. It is filed as biochemical. An excerpt: (§1) Absorbance measurements of the creatininase enzyme(s) were taken via spectrophotometer for each aqueous solution (represented as columns 1-5 in Tables 5-8—column 6 is a blank), the absorbance being directly proportional to the enzyme activity being measured-which for Tables 5-8 is creatininase enzyme activity. Accordingly, the higher the absorbance measurement, the higher the enzyme activity of creatininase. […] In addition, the mean values, standard deviations, and coefficients of variation are all presented for the enzyme activity/absorbance of each aqueous solution. All measurements were taken at 37° C.

Another series concerns creatininase (Toyobo). The series can be described thus: Toyobo Creatininase Enzyme Absorbance with BSA and Proclin 300. It is filed as biochemical. Conditions: day 14; with Proclin 300; absorbance increases as BSA goes from 5 to 25 to 50 mg/mL.
Description: as §1

For bovine serum albumin [BSA], the “creatininase enzyme activity, effect of the presence of BSA” value in series [1] is given as “unaffected”. Besides, the creatininase enzyme activity entry with creatininase (Toyobo) is listed as “remains low”.
